Experimental data as given in publication PMC9984387, “The dynamic nature of netrin-1 and the structural basis for glycosaminoglycan fragment-induced filament formation” (Nature Communications, 2023).
“And” between values parts separate entries of the source, which are not always exact repeats. Equal values may be shown once.

What was measured:
[1] = molecular target: NET1ΔC (netrin-1 domains LN and LE, Gallus gallus, aa 26-458), tag-free (Gallus gallus) (UniProt Q90922); assay: AUC; sedimentation velocity, 13 µM NET1ΔC with equimolar or twofold molar excess of HO-dp8; 50 mM tris, pH 7.5, 200 mM NaCl
[2] = molecular target: NET1ΔC (netrin-1 domains LN and LE, Gallus gallus, aa 26-458), tag-free (Gallus gallus) (UniProt Q90922); assay: AUC; sedimentation velocity, 13 µM NET1ΔC without heparin oligosaccharides; 50 mM tris, pH 7.5, 200 mM NaCl; monomer to dimer
[3] = molecular target: NET1ΔC (netrin-1 domains LN and LE, Gallus gallus, aa 26-458), tag-free (Gallus gallus) (UniProt Q90922); assay: SEC-SAXS; tag-free chicken NET1ΔC without heparin oligosaccharides, 5.8 mg/ml in 20 mM tris, pH 7.5, 500 mM NaCl or 4.5 mg/ml in 50 mM tris, pH 7.5, 200 mM NaCl; monomer to dimer
[4] = molecular target: NET1ΔC (netrin-1 domains LN and LE, Gallus gallus, aa 26-458), tag-free (Gallus gallus) (UniProt Q90922); assay: SEC-SAXS; tag-free NET1ΔC (9.23 mg/ml, 186 µM) with HO-dp8 or HO-dp10; 50 mM tris, pH 7.5, 0.2 M NaCl
[5] = molecular target: NET1ΔC (netrin-1 domains LN and LE, Gallus gallus, aa 26-458), tag-free (Gallus gallus) (UniProt Q90922); assay: SEC-MALS; NET1ΔC without heparin oligosaccharides; 3–5 mg/ml injected; 50 mM tris, pH 7.5, 200 mM NaCl, 25 °C; monomer to dimer
[6] = molecular target: NET1ΔC (netrin-1 domains LN and LE, Gallus gallus, aa 26-458), tag-free (Gallus gallus) (UniProt Q90922); assay: mass photometry; NET1ΔC incubated overnight with equimolar HO-dp8 (5 μM), diluted to 100 nM; 50 mM tris pH 8.5, 200 mM NaCl
[7] = molecular target: NET1ΔC (netrin-1 domains LN and LE, Gallus gallus, aa 26-458), tag-free (Gallus gallus) (UniProt Q90922); assay: mass photometry; NET1ΔC incubated overnight with equimolar HO-dp10 (5 μM), diluted to 100 nM; 50 mM tris pH 8.5, 200 mM NaCl

stoichiometry N [1]: 3 and 5 | stoichiometry N [2]: 2 | stoichiometry N [3]: 2 | stoichiometry N [4]: > 5 | stoichiometry N [5]: 2 | share of counts as dimer [6]: 12.4% | stoichiometry N [6]: 2 | share of counts as hexamer [7]: 3.38% | stoichiometry N [7]: 6
Substance: NET1ΔC (netrin-1 domains LN and LE, Gallus gallus, aa 26-458), tag-free (from UniProt Q90922 26-458) (domain or fragment)
